pIC50: −log10 of the molar value.

Chains of the proteins cited; added tags and fusions are not shown. Lines headed by an entry give the natural chain unless they say otherwise; changes in a name come on top.
UniProt P12530: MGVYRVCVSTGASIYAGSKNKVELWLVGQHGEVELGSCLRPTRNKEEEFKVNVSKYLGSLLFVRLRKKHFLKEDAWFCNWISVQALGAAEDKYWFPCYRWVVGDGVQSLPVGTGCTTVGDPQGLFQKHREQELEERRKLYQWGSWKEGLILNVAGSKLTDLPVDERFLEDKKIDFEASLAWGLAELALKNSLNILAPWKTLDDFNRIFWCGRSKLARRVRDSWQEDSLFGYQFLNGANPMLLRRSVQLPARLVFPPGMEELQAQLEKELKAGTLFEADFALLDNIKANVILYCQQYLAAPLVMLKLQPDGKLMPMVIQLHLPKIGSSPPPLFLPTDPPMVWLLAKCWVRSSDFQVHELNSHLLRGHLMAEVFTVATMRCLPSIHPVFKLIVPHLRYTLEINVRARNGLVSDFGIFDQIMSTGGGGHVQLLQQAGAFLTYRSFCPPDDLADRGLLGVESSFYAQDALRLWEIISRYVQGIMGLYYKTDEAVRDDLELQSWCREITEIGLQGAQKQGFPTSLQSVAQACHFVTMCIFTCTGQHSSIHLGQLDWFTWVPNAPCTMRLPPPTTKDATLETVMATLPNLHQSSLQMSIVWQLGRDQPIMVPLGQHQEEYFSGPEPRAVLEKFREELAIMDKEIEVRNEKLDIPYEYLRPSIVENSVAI

The test addresses 15-LO (UniProt P12530). Format: biochemical. To be noted: read-out: IC50 for 15-LO. Here is the method: IC50's may be determined by standard methods. One particular method is a colorimetric assay in which the putative inhibitor is pre-incubated with the 15-LO enzyme for about 10 minutes followed by addition of linoleic acid substrate for an additional 10 minutes. The product, 13-HPODE, is quantitated by coupling the reduction of the hydroperoxylated lipid to the oxidation on N-benzoyl-leucomethylene blue in the presence of hemin at pH 5. The absorbance of the oxidized methylene blue is directly proportional to the amount of 13-HPODE formed by the 15-LO, and can be measured in the presence and absence of inhibitor.

In the case of `c1ccc2c(c1)SCc1c-2[nH]c2ccccc12` [Compound 2, 6,11-dihydro-5-thia-11-aza-benzo[a]fluorene], the pIC50 (in general, −log10 of the IC50, conventionally taken in molar units) was approximately 6.70.

Values taken from patent US20030175680A1, “Methods of treating and preventing bone loss” (priority 2002, published 2003).
